# Laboratory results published in ChEMBL document CHEMBL1131999, “Design, synthesis and testing of amino-bicycloaryl based orally bioavailable thrombin inhibitors” (Bioorg Med Chem Lett, 1999).
# Biological target: Prothrombin (Homo sapiens, UniProt P00734)
# Assay: In vitro thrombin inhibition
structure (smiles),measurement,value
COc1cc(C)c(S(=O)(=O)N[C@@H](CC(=O)OC(C)(C)C)C(=O)NC(Cc2ccc3c(N)nccc3c2)C(=O)N2CCCCC2)c(C)c1C (stereo partly specified),IC50,80 nM
